Experimental data taken from patent US8772480B2, “Inhibitors of PI3 kinase and/or mTOR” (priority 2009, dated 2014).

Biological target: mammalian target of rapamycin (mTOR) (Homo sapiens (Human), UniProt P42345)
Details: read-out: mTOR IC50

With `COc1ccc(Nc2nccnc2-c2cc(N)nc(C)n2)cn1` [Example 116, 6-(3-(6-methoxypyridin-3-ylamino)pyrazin-2-yl)-2-methylpyrimidin-4-amine] the IC50 was greater than 10 µM.

Work on `COc1ccc(Nc2ncncc2-c2nc(C)nc(N)n2)cn1` [Example 117, 4-(4-(6-methoxypyridin-3-ylamino)pyrimidin-5-yl)-6-methyl-1,3,5-triazin-2-amine] yielded an IC50 greater than 10 µM.

In the case of `COc1ccc(Nc2nc(N)ncc2-c2nc(C)nc(N)n2)cn1` [Example 118, 5-(4-amino-6-methyl-1,3,5-triazin-2-yl)-N4-(6-methoxypyridin-3-yl)pyrimidine-2,4-diamine], the IC50 is reported as greater than 10 µM.

`COc1ccc(Nc2nc(N3CCOCC3)ncc2-c2nc(C)nc(N)n2)cn1` [Example 120, 4-(4-(6-methoxypyridin-3-ylamino)-2-morpholinopyrimidin-5-yl)-6-methyl-1,3,5-triazin-2-amine] was tested, and the IC50 was greater than 10 µM.

For `COc1ccc(Nc2nc(N(C)C)ncc2-c2nc(C)nc(N)n2)cn1` [Example 121, 5-(4-amino-6-methyl-1,3,5-triazin-2-yl)-N4-(6-methoxypyridin-3-yl)-N2,N2-dimethylpyrimidine-2,4-diamine], the IC50 was greater than 10 µM.

`COc1ccc(Nc2nc(N3CCCC3)ncc2-c2nc(C)nc(N)n2)cn1` [Example 122, 4-(4-(6-methoxypyridin-3-ylamino)-2-(pyrrolidin-1-yl)pyrimidin-5-yl)-6-methyl-1,3,5-triazin-2-amine] was tested, and the IC50 was greater than 10 µM.

Molecule `COc1ccc(Nc2nc(N3CCCCC3)ncc2-c2nc(C)nc(N)n2)cn1` [Example 123, 4-(4-(6-methoxypyridin-3-ylamino)-2-(piperidin-1-yl)pyrimidin-5-yl)-6-methyl-1,3,5-triazin-2-amine] has an IC50 greater than 10 µM.

Work on `COc1ccc(Nc2nc(-c3ccncc3)ncc2-c2nc(C)nc(N)n2)cn1` [Example 124, 4-(4-(6-methoxypyridin-3-ylamino)-2-(pyridin-4-yl)pyrimidin-5-yl)-6-methyl-1,3,5-triazin-2-amine] yielded an IC50 greater than 10 µM.

In the case of `COc1ccc(Nc2nc(-c3ccc(F)cc3)ncc2-c2nc(C)nc(N)n2)cn1` [Example 125, 4-(2-(4-fluorophenyl)-4-(6-methoxypyridin-3-ylamino)pyrimidin-5-yl)-6-methyl-1,3,5-triazin-2-amine], the IC50 is reported as greater than 10 µM.

In the case of `COc1ccc(Nc2nc(NC3CCCC3)ncc2-c2nc(C)nc(N)n2)cn1` [Example 126, 5-(4-amino-6-methyl-1,3,5-triazin-2-yl)-N2-cyclopentyl-N4-(6-methoxypyridin-3-yl)pyrimidine-2,4-diamine], the IC50 is reported as greater than 10 µM.

For `COc1ccc(Nc2ncc(Cl)cc2-c2nc(C)nc3[nH]cnc23)cn1` [Example 127, 5-chloro-N-(6-methoxypyridin-3-yl)-3-(2-methyl-9H-purin-6-yl)pyridin-2-amine], the IC50 was greater than 10 µM.

`Cc1nc(N)nc(-c2cc(CN3CCN(S(C)(=O)=O)CC3)cnc2Nc2ccc3ocnc3c2)n1` [Example 128, N-(3-(4-amino-6-methyl-1,3,5-triazin-2-yl)-5-((4-(methylsulfonyl)piperazin-1-yl)methyl)pyridin-2-yl)benzo[d]oxazol-5-amine] gave an IC50 greater than 10 µM.

`Cc1nc(N)nc(-c2cc(CN3CCOCC3)cnc2Nc2ccc3scnc3c2)n1` [Example 129, N-(3-(4-amino-6-methyl-1,3,5-triazin-2-yl)-5-(morpholinomethyl)pyridin-2-yl)benzo[d]thiazol-5-amine] showed an IC50 of 1.34 µM.

In the case of `COc1ncc(Nc2ncc(CN3CCOCC3)cc2-c2nc(C)nc(N)n2)cc1F` [Example 130, 4-(2-(5-fluoro-6-methoxypyridin-3-ylamino)-5-(morpholinomethyl)pyridin-3-yl)-6-methyl-1,3,5-triazin-2-amine], the IC50 is reported as greater than 10 µM.

`COc1ccc(Nc2ncc(CNC(C)(C)C)cc2-c2nc(C)nc3[nH]cnc23)cn1` [Example 134, 5-((tert-butylamino)methyl)-N-(6-methoxypyridin-3-yl)-3-(2-methyl-9H-purin-6-yl)pyridin-2-amine] gave an IC50 greater than 10 µM.

For `COc1ccc(Nc2ncc(CNC(C)C)cc2-c2nc(C)nc3[nH]cnc23)cn1` [Example 135, 5-((isopropylamino)methyl)-N-(6-methoxypyridin-3-yl)-3-(2-methyl-9H-purin-6-yl)pyridin-2-amine], the IC50 was greater than 10 µM.

Molecule `COc1ccc(Nc2ncc(CNCc3ccccn3)cc2-c2nc(C)nc3[nH]cnc23)cn1` [Example 136, N-(6-methoxypyridin-3-yl)-3-(2-methyl-9H-purin-6-yl)-5-((pyridin-2-ylmethylamino)methyl)pyridin-2-amine] has an IC50 of 0.556 µM.

For `COc1ccc(Nc2ncc(CNCc3ccncc3)cc2-c2nc(C)nc3[nH]cnc23)cn1` [Example 137, N-(6-methoxypyridin-3-yl)-3-(2-methyl-9H-purin-6-yl)-5-((pyridin-4-ylmethylamino)methyl)pyridin-2-amine], the IC50 was 0.55 µM.

For `COc1ccc(Nc2ncc(CNCc3cccnc3)cc2-c2nc(C)nc3[nH]cnc23)cn1` [Example 138, N-(6-methoxypyridin-3-yl)-3-(2-methyl-9H-purin-6-yl)-5-((pyridin-3-ylmethylamino)methyl)pyridin-2-amine], the IC50 was 1.4 µM.

`COc1ccc(Nc2ncc(C(O)c3ccc(S(C)(=O)=O)cc3)cc2-c2nc(C)nc3[nH]cnc23)cn1` (centres unmarked) [Example 139, (6-(6-methoxypyridin-3-ylamino)-5-(2-methyl-9H-purin-6-yl)pyridin-3-yl)(4-(methylsulfonyl)phenyl)methanol] showed an IC50 greater than 10 µM.

`COc1ccc(Nc2ncc(C(C)N3CCN(S(C)(=O)=O)CC3)cc2-c2nc(C)nc3[nH]cnc23)cn1` (centres unmarked) [Example 140, N-(6-methoxypyridin-3-yl)-3-(2-methyl-9H-purin-6-yl)-5-(1-(4-(methylsulfonyl)piperazin-1-yl)ethyl)pyridin-2-amine] gave an IC50 of 0.476 µM.

For `COc1ccc(Nc2ncc(Cc3ccc(S(C)(=O)=O)cc3)cc2-c2nc(C)nc(N)n2)cn1` [Example 141, 4-(2-(6-methoxypyridin-3-ylamino)-5-(4-(methylsulfonyl)benzyl)pyridin-3-yl)-6-methyl-1,3,5-triazin-2-amine], the IC50 was greater than 10 µM.

Work on `COc1ncc(Nc2ncc(Cc3ccc(S(C)(=O)=O)cc3)cc2-c2nc(C)nc(N)n2)cc1F` [Example 142, 4-(2-(5-fluoro-6-methoxypyridin-3-ylamino)-5-(4-(methylsulfonyl)benzyl)pyridin-3-yl)-6-methyl-1,3,5-triazin-2-amine] yielded an IC50 greater than 10 µM.

Molecule `COc1ccc(Nc2ncc(C(C)N3CCN(S(C)(=O)=O)CC3)cc2-c2nc(C)nc(N)n2)cn1` (centres unmarked) [Example 144, 4-(2-(6-Methoxypyridin-3-Ylamino)-5-(1-(4-(Methylsulfonyl)Piperazin-1-yl)Ethyl)Pyridin-3-yl)-6-Methyl-1,3,5-Triazin-2-Amine] has an IC50 of 2.2 µM.

`COc1ccc(Nc2ncc([C@H](C)N3CCN(S(C)(=O)=O)CC3)cc2-c2nc(C)nc(N)n2)cn1` [Example 145, (S)-4-(2-(6-Methoxypyridin-3-Ylamino)-5-(1-(4-(Methylsulfonyl)Piperazin-1-yl)Ethyl)Pyridin-3-yl)-6-Methyl-1,3,5-Triazin-2-Amine] showed an IC50 of 1.72 µM.

Work on `COc1ccc(Nc2ncc([C@@H](C)N3CCN(S(C)(=O)=O)CC3)cc2-c2nc(C)nc(N)n2)cn1` [Example 146, (R)-4-(2-(6-Methoxypyridin-3-Ylamino)-5-(1-(4-(Methylsulfonyl)Piperazin-1-yl)Ethyl)Pyridin-3-yl)-6-Methyl-1,3,5-Triazin-2-Amine] yielded an IC50 of 3.25 µM.

`COc1ccc(Nc2ncc(C(C)c3ccc(S(C)(=O)=O)cc3)cc2-c2nc(C)nc(N)n2)cn1` (centres unmarked) [Example 149, 4-(2-(6-Methoxypyridin-3-Ylamino)-5-(1-(4-(Methylsulfonyl)Phenyl)Ethyl)Pyridin-3-yl)-6-Methyl-1,3,5-Triazin-2-Amine] gave an IC50 greater than 10 µM.

Molecule `COc1ncc(Nc2ncc(C(C)c3ccc(S(C)(=O)=O)cc3)cc2-c2nc(C)nc(N)n2)cc1F` (centres unmarked) [Example 150, 4-(2-(5-Fluoro-6-Methoxypyridin-3-Ylamino)-5-(1-(4-(Methylsulfonyl)Phenyl)Ethyl)Pyridin-3-yl)-6-Methyl-1,3,5-Triazin-2-Amine] has an IC50 greater than 10 µM.

Work on `COc1ccc(Nc2ncc(C(=O)N3CCOCC3)cc2-c2nc(C)nc(N)n2)cn1` [Example 151, 4-(2-((6-Methoxy-3-Pyridinyl)Amino)-5-(4-Morpholinylcarbonyl)-3-Pyridinyl)-6-Methyl-1,3,5-Triazin-2-Amine] yielded an IC50 of 5.39 µM.

With `COc1ncc(Nc2ncc(C(=O)N3CCN(S(C)(=O)=O)CC3)cc2-c2nc(C)nc(N)n2)cc1F` [Example 152, 4-(2-((5-Fluoro-6-Methoxy-3-Pyridinyl)Amino)-5-((4-(Methylsulfonyl)-1-Piperazinyl)Carbonyl)-3-Pyridinyl)-6-Methyl-1,3,5-Triazin-2-Amine] the IC50 was greater than 10 µM.

Work on `COCCNC(=O)c1cnc(Nc2ccc(OC)nc2)c(-c2nc(C)nc(N)n2)c1` [Example 153, 5-(4-Amino-6-Methyl-1,3,5-Triazin-2-yl)-N-(2-Methoxyethyl)-6-((6-Methoxy-3-Pyridinyl)Amino)-3-Pyridinecarboxamide] yielded an IC50 greater than 10 µM.

With `COc1ccc(Nc2ncc(CN3CCOCC3=O)cc2-c2nc(C)nc(N)n2)cn1` [Example 154, 4-((5-(4-Amino-6-Methyl-1,3,5-Triazin-2-yl)-6-((6-Methoxy-3-Pyridinyl)Amino)-3-Pyridinyl)Methyl)-3-Morpholinone] the IC50 was 3.03 µM.

`COc1ccc(Nc2ncc(CC3CCN(S(C)(=O)=O)CC3)cc2-c2nc(C)nc(N)n2)cn1` [Example 155, 4-(2-(6-Methoxypyridin-3-Ylamino)-5-((1-(Methylsulfonyl)Piperidin-4-yl)Methyl)Pyridin-3-yl)-6-Methyl-1,3,5-Triazin-2-Amine] showed an IC50 greater than 10 µM.

For `COc1ccc(Nc2ncc(Cc3ccccc3)cc2-c2nc(C)nc(N)n2)cn1` [Example 156, 4-(5-Benzyl-2-(6-Methoxypyridin-3-Ylamino)Pyridin-3-yl)-6-Methyl-1,3,5-Triazin-2-Amine], the IC50 was greater than 10 µM.

`COc1ccc(Nc2ncc(CN3CCN(C)CC3)cc2-c2nc(C)nc(N)n2)cn1` [Example 157, 4-(2-(6-Methoxypyridin-3-Ylamino)-5-((4-Methylpiperazin-1-yl)Methyl)Pyridin-3-yl)-6-Methyl-1,3,5-Triazin-2-Amine] gave an IC50 greater than 10 µM.
